pIC50: −log10 of the molar value.
Target: EGFR (L858R/T790M/C797S) kinase (Homo sapiens, UniProt P00533, C797S/L858R/T790M)

Amino acid sequences for entries named in this document (tags omitted). Residues count along the entry.
UniProt P00533, 25-1210 T790M/C797S/L858R limits assumed: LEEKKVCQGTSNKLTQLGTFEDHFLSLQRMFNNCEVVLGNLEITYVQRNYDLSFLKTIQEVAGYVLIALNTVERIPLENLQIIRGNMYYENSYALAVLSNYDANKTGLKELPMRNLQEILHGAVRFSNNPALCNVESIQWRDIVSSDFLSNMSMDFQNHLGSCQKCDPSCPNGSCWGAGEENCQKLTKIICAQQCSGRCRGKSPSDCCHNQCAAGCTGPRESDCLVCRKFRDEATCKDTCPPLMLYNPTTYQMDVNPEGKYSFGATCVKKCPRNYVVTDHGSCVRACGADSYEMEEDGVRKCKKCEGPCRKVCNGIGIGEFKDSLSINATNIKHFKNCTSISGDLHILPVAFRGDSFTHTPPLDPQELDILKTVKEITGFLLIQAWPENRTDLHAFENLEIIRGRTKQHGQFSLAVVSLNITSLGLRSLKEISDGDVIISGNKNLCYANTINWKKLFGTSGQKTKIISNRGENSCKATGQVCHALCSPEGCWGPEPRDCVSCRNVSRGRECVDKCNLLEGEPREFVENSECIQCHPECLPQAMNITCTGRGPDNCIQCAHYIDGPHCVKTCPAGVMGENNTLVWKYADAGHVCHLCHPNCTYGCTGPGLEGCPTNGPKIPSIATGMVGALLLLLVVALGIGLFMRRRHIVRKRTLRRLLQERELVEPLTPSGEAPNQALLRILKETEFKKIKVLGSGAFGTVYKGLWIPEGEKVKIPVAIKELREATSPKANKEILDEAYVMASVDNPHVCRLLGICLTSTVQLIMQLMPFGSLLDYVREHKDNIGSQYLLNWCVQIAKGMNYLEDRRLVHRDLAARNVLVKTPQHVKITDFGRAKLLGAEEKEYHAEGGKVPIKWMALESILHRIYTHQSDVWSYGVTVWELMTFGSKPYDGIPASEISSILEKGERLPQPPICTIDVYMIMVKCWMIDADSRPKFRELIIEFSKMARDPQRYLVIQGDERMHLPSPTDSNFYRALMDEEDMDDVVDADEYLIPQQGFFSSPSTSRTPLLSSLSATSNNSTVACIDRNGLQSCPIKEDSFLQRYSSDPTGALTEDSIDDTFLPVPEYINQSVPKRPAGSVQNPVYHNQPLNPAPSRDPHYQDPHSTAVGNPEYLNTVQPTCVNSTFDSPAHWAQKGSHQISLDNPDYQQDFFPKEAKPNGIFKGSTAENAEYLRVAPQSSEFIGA

Compound `COc1cc(N2CC3CC(C2)N3C(C)=O)ccc1Nc1ncc(Cl)c(Nc2ccccc2P(C)(C)=O)n1` has a pIC50 of 6.61.

Reference: US20230026840A1, “COMPOUND USED AS EGFR KINASE INHIBITOR AND USE THEREOF” (TYK MEDICINES, INC., priority 2019, published 2023)
